# Antibody variant affinities, Ab-14 heavy chain, assay B

Target peptide (SARS-CoV-2 spike, HR2 region): PDVDLGDISGINAS

Ab-14 is the parent antibody, in scFv form: VH, then three GGGGS repeats, then VL. The light chain is unchanged in all variants.
VH: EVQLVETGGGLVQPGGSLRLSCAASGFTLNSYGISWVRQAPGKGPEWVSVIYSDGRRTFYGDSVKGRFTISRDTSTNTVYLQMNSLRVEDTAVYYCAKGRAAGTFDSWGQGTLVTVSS
VL: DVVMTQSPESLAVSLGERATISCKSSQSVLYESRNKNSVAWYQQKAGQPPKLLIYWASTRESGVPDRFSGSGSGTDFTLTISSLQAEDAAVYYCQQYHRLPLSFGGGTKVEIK

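Phage display of a naive human antibody library on the peptide gave the parent. These sequences belong to a second round, designed from the earlier measurements on random variants of the parent. Group labels follow the data file (Ctrl: baseline library sampled from a position-specific scoring matrix, with some repeated check sequences; Rand: our label for a block that the file lists under HC and that is probably the random mutants of the ten best first-round binders; GP: Gaussian process model; GPLM: also part of the Gaussian process libraries; HC: hill climbing; Gen: genetic algorithm; Gibbs: Gibbs sampling; a sequence that several methods proposed may carry one label only). AlphaSeq pools MATa yeast showing the antibodies with MATalpha yeast showing the peptide. After mating in shaken culture at 30 °C for 16 h, diploids were selected and their barcode pairs sequenced. Read counts were normalised to the haploid input and turned into Kd by a linear fit to BCL2-family pairs of known affinity, for each replicate. Mating was done six times.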

Substitutions are numbered in sequence along the VH above, starting at 1 (not Kabat). Variants here have at most six changes. The read-out is the apparent dissociation constant on a log10 scale (nM): the lower, the stronger. Where no diploid with the target was found in that replicate, the entry reads "nd": below detection, most likely a poor binder, though not proof of it. As a blank, each scFv also met three strains without target: over all heavy chain designs, 1% of these pairings were detected, typically at 2.08 and seldom below 0.84. In the paper, a design with two or fewer of six values counts as a poor binder. Values of this round are not directly comparable with the first-round values of the same sequences.

* T28D+R100V+A101N [GP_Gen]: 0.60, -0.67, 0.32, -0.09, -0.30, 0.47
* T28V+S53A+R100K [GPLM_Gen]: 0.67, 2.07, 0.71, nd, 1.78, 1.40
* T28S+S31N+G61I+R100Q [GPLM_Gen]: 0.98, 0.89, 0.91, 0.20, 1.38, 1.05
* G26H+T28E+G61I+A101Q [GP_Gibbs]: nd, nd, 1.58, nd, nd, 1.56
* T28D+S31T+A101E [GPLM_Gibbs]: -0.04, -0.31, -0.08, -0.36, -0.26, -0.43
* T28S+S31A+G61S [Ctrl]: 2.68, 0.84, 1.20, 2.59, nd, 1.84
* N30E+T58Q+A101W+G103L [Ctrl]: nd, nd, nd, nd, nd, nd
* S53A+Y60M+A101L+G103D+T104H [Ctrl]: nd, nd, nd, nd, nd, nd
* F27E+I51D+S53A+A102Q+F105A [Ctrl]: nd, nd, nd, nd, nd, nd
* T28D+R56K+S63D+A101Q [GP_Gibbs]: 0.03, -0.07, -0.33, -0.13, -0.01, 0.16
* G61S+A101E+D106T [GP_HC]: 1.71, nd, 2.05, nd, nd, nd
* T28D+G61A+A101E [GPLM_Gen]: 0.74, 0.80, 0.12, -0.40, 0.34, 0.05
* N30E+G61A+S63R+R100W+A101T [GP_Gibbs]: 1.64, 1.06, 1.29, 1.74, 1.00, 2.15
* G61T+S107L [Ctrl]: nd, nd, nd, nd, -0.44, nd
* T28W+S31E+G61D+R100K [GP_Gen]: 0.86, 0.65, 1.02, 0.75, 0.91, 0.69
* N30E+S31I+I51M+G103L+D106I [Rand]: nd, nd, nd, nd, nd, nd
* G61R+A101E+G103L [Ctrl]: nd, nd, nd, nd, nd, nd
* G61L+D106E [Ctrl]: nd, nd, nd, nd, nd, nd
* T28N+R56V+S107Q [Ctrl]: nd, nd, 2.11, 1.62, 0.97, 2.83
* S53A+F59A+S107Q [Ctrl]: nd, nd, nd, nd, nd, nd
* T28S+R100H+A101V [GPLM_Gen]: nd, -0.64, -0.69, -0.68, -1.37, -0.69
* S31D+R56V+G99H [Ctrl]: 1.46, nd, nd, nd, nd, nd
* T28N+T58N+T104V+F105G [Ctrl]: nd, nd, nd, nd, nd, nd
* S31E+S63A+S107Q [GP_HC]: 0.19, -0.42, -0.02, -0.95, 0.16, -0.20
* T28N+S31D+K65V+R100Q [Ctrl]: 1.75, nd, 1.81, 1.52, 2.44, 1.54
* G61I+R100K [GPLM_Gen]: 0.68, nd, nd, nd, 0.77, 1.66
* T28Q+G61V+R100K+A101T+S107T [GP_Gibbs]: 1.54, 1.33, 1.40, 1.18, 1.41, 2.07
* N30Q+S31E+Y60I+R100G [Ctrl]: 1.11, 1.54, 0.90, 2.02, nd, 1.84
* G61T+R100Q+A101V+T104K [GP_HC]: nd, nd, 1.69, 1.39, nd, nd
* F105L+D106W+S107M [Ctrl]: nd, nd, nd, nd, nd, nd
* T28D+T104A+D106R [GP_HC]: 1.48, nd, nd, nd, nd, nd
* S31E+R100Q+A101T+S107A [GP_Gen]: -0.17, 0.18, -0.32, -0.45, -0.33, -0.15
* F27M+S53A+F105N [GP_HC]: 1.54, 1.54, 1.15, 0.81, 0.98, 1.86
* R56K+G61S+R100Q+S107F [GPLM_Gen]: -0.31, 0.23, 1.24, -0.40, -0.50, -0.21
* T28S+S53A+R100G [GPLM_Gen]: -0.19, -0.13, -0.02, -0.50, -0.25, 0.19
* T28E+S31D+A101C [GP_HC]: nd, nd, nd, nd, nd, nd
* G26D+R100N+A101V+G103C [Ctrl]: nd, nd, nd, nd, nd, nd
* T28E+G61T+R100L+A101T [GPLM_Gen]: -0.07, -0.13, 0.27, -0.42, -0.11, -0.05
* T28N+G61I+R100W+A101T [GP_Gen]: 1.87, 1.05, 0.93, 1.34, 2.25, 1.57
* T28D+S31E+G61T+A101Q [GP_HC]: -0.32, -0.26, -0.18, -0.23, 0.03, 0.27

For reference, 6 entries of the list once more:

changes	group	replicates, log10 nM
G61T+R100Q+A101V+T104K	GP_HC	nd, nd, 1.69, 1.39, nd, nd
T28N+R56V+S107Q	Ctrl	nd, nd, 2.11, 1.62, 0.97, 2.83
F27M+S53A+F105N	GP_HC	1.54, 1.54, 1.15, 0.81, 0.98, 1.86
N30E+G61A+S63R+R100W+A101T	GP_Gibbs	1.64, 1.06, 1.29, 1.74, 1.00, 2.15
T28N+S31D+K65V+R100Q	Ctrl	1.75, nd, 1.81, 1.52, 2.44, 1.54
T28E+G61T+R100L+A101T	GPLM_Gen	-0.07, -0.13, 0.27, -0.42, -0.11, -0.05

The measurements come from Li et al. 2023 (doi:10.1038/s41467-023-39022-2) through the FLAb antibody collection.